# In US20250332141A1, “A PHARMACEUTICAL COMPOSITION COMPRISING AN INHIBITOR OF GLUTAMINE SYNTHETASE ENZYME TO COMBAT ARTEMISININ RESISTANCE IN MALARIA” (Institute of Life Sciences, priority 2022, published 2025):
# Legend:
# [1] = target: T1, rPfGS (Plasmodium falciparum glutamine synthetase) (Plasmodium falciparum, UniProt C0H551); test: Recombinant PfGS enzyme assay (HPLC glutamine formation / Pi release) and inhibition; type: biochemical
# T1 sequence (C0H551 1-543): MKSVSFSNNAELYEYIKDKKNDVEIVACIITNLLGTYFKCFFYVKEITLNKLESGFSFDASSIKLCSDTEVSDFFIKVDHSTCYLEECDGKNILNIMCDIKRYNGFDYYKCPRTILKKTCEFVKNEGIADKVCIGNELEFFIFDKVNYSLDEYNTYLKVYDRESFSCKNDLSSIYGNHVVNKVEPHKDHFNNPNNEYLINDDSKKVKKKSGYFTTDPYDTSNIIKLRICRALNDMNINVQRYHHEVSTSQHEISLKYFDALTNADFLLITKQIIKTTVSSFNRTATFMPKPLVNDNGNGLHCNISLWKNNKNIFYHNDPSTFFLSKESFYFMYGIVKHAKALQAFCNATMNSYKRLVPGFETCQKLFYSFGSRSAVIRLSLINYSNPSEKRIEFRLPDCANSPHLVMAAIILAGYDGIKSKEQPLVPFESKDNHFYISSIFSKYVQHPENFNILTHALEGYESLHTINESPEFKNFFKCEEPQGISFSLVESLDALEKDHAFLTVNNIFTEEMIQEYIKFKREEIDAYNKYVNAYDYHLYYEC
# [2] = tested on: Pf asexual stages (Pf3D7 cultures); test: MSO and PPT inhibition of in vitro growth of Pf cultures; type: cell-based, Plasmodium falciparum; conditions: RPMI medium containing physiological levels (0.5 mM) of glutamine (RPMI^Pgln)
# Protocol: The parasites were subcultured with fresh RBCs when the culture parasitemia reached around 2-5%. […] The isolated parasites were washed thoroughly with ice cold PBS for four times to remove the carry-over of proteins from RBC lysates. ART-resistant PfCam3.I^R539T strain was also maintained in a similar fashion. Giemsa-stained smears were routinely prepared to examine the parasite growth and parasitemia. Parasite growth assessment for experiments was carried out by Giemsa-stained smears, flow cytometry and ^3H-hypoxanthine uptake. […] The radioactive counts were measured using MicroBeta^2 Microplate Counters (PerkinElmer).
smiles,measurement,setting,value
"CS(=N)(=O)CC[C@H](N)C(=O)O (stereo partly drawn) [MSO, L-methionine sulfoximine]",Ki,[1],5.64 ± 0.39 µM
same,IC50 in RPMI^Pgln relative to IC50 in RPMI^-gln,[2],~10 times higher
